Molecular target: T1, COX-1 (Homo sapiens, UniProt P23219)
T1 construct: human U-937 cells (which specifically express COX-1); endogenous in cells; host or cells: human U-937 cells
Test: Whole cell cyclooxygenase assay in U-937 cells (COX-1, inhibition of PGE2 production)
Format: cell-based

Amino acid sequences for entries named in this document (tags omitted). Residues count along the entry.
UniProt P23219, 24-599: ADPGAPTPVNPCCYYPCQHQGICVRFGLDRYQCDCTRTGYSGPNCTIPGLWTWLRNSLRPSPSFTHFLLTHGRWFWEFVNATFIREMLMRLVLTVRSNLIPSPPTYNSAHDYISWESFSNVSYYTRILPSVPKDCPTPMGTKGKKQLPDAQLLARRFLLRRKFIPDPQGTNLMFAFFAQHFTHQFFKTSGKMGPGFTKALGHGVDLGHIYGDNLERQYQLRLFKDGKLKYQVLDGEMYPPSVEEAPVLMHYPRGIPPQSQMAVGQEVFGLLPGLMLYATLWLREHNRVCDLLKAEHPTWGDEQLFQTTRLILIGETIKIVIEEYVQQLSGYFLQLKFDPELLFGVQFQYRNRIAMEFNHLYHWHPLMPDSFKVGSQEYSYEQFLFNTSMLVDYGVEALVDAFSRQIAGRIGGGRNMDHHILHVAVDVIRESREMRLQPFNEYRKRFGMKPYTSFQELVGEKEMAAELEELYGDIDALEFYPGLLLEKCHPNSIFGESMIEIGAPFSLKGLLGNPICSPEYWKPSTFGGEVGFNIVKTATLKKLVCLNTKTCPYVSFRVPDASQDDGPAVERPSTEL

CC1(C)C(=O)C(c2ccccc2)=C1c1ccc(S(C)(=O)=O)cc1 [Example 16, 4,4-Dimethyl-3-(4-methylsulfonylphenyl)-2-phenyl-2-cyclobuten-1-one]
IC50: 520 nM
